In article PMC3469775 (Journal of medicinal chemistry, 2012):

System: MCF-7-Tet-off-3βHSD1-Arom (MCF-7a) cells
Test: Stimulation of growth of MCF-7a cells by E2, TST and ASD
Type: cell-based
Details: Homo sapiens, MCF7a, read-out: EC50 of growth stimulation

Compound | pEC50
C[C@]12CCC(=O)C=C1CC[C@@H]1[C@@H]2CC[C@]2(C)C(=O)CC[C@@H]12 [ASD, androst-4-ene-3,17-dione] | 8.44
C[C@]12CC[C@@H]3c4ccc(O)cc4CC[C@H]3[C@@H]1CC[C@@H]2O [E2, 17β-estradiol] | 10.26
C[C@]12CC[C@H]3[C@@H](CCC4=CC(=O)CC[C@@]43C)[C@@H]1CC[C@@H]2O [TST, testosterone] | 10.00

pEC50: −log10 of the molar value.
